pIC50: −log10 of the molar value.
Target: Dual specificity tyrosine-phosphorylation-regulated kinase 1A (Homo sapiens, UniProt Q13627)
Assay: Kinase Inhibition Assay
Experimental: For kinase inhibition assays, the final concentrations of the enzymes were 15, 14.5, 14.5, and 8.8 nM for CLK1, CLK2, CLK3, and Dyrk1A (Invitrogen, catalog no. PV3785), respectively. The compound concentrations ranged from 15503 to 121 nM and from 1550 to 12 nM. The RS domainderived peptide ([…]) (Anaspec, catalog no. 61722) for CLK1 and CLK3, Dyrktide ([…]) (Anaspec, catalog no. 62698) for Dyrk1A, and S6K peptide for CLK2 were used as substrates at a concentration of 5 μM.

`O=C1N=C(NCc2cccs2)S/C1=C/c1ccc2ncccc2c1` [NR9] showed a pIC50 of 6.22.

From BindingDB's records for doi:10.1021/acs.biochem.5b01128 (University College London, 2016)
